Values quoted from earlier work as cited in PMC9019904, “AD Informer Set: Chemical tools to facilitate Alzheimer's disease drug discovery” (Alzheimer's & Dementia : Translational Research & Clinical …, 2022).

Test system: protein product expressed by the gene target
Settings: cited from earlier work

COc1cc2c(cc1OC)C(=O)C(CC1CCN(Cc3ccccc3)CC1)C2.Cl (stereo not shown) [Donepezil Hydrochloride (E2020)]
Reported on-target biochemical potency (nM): AChE: 11.6 nM
